The values that follow are results of earlier work, collected in patent publication US8216550B2, “Luciferins” (University of Massachusetts, priority 2007, dated 2012).

Chains of the proteins cited; added tags and fusions are not shown.
UniProt P08659, whole entry: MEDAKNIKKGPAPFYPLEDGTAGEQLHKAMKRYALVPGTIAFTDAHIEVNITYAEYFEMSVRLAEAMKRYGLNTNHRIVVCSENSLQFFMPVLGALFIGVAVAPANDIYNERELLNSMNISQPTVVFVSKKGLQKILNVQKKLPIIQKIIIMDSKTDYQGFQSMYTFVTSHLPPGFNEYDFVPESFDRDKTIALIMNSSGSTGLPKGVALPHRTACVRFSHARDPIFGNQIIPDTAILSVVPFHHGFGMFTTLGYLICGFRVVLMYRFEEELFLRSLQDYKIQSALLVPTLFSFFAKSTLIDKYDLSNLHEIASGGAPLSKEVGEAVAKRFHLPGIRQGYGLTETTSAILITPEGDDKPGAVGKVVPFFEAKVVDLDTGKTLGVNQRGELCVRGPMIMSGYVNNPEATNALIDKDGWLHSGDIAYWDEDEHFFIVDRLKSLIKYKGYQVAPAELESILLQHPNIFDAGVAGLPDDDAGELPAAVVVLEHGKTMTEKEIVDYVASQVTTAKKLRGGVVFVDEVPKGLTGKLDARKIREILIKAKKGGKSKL

In this data set the target is Firefly luciferase (Photinus pyralis, UniProt P08659). The following applies: firefly luciferase combined with firefly luciferin, yellow-green light; cited from earlier work.

With `O=C(O)[C@H]1CSC(c2nc3ccc(O)cc3s2)=N1` [D-luciferin], the emitted light wavelength is given as 560 nm.
